Apparent affinities of Ab-14 variants for a coronavirus HR2 peptide

Values reported by Li et al. 2023, doi:10.1038/s41467-023-39022-2 (FLAb copy).

Target peptide (SARS-CoV-2 spike, HR2 region): PDVDLGDISGINAS

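The parent was found by panning a naive human phage display library on the peptide. These sequences belong to a second round, designed from the earlier measurements on random variants of the parent. Group labels follow the data file (Ctrl: baseline library sampled from a position-specific scoring matrix, with some repeated check sequences; Rand: our label for a block that the file lists under HC and that is probably the random mutants of the ten best first-round binders; En: ensemble of fine-tuned language models; GP: Gaussian process model; GPLM: also part of the Gaussian process libraries; HC: hill climbing; Gen: genetic algorithm; Gibbs: Gibbs sampling; a sequence that several methods proposed may carry one label only). The assay is AlphaSeq: two haploid yeast populations carry antibody and antigen on their surface. Pairs that bind mate more often; barcode pairs of the diploids are counted by sequencing. Each replicate has its own calibration line, from reference interactions of the BCL2 family. The assay was run in six technical replicates.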

Each scFv is VH, a (GGGGS)3 linker, VL, as in the parent Ab-14, and differs from it in the CDRs of the heavy chain only.
VH: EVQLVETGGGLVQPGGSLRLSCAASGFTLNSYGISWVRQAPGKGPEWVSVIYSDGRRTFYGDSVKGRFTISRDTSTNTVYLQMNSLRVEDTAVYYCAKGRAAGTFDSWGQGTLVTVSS
VL: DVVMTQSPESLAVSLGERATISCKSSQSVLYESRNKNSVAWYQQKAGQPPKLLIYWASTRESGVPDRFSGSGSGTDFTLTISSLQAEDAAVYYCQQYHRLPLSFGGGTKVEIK

The parent's heavy chain CDRs are GFTLNSYGIS, VIYSDGRRTFYGDSVK, GRAAGTFDS; each variant's own CDRs replace them letter for letter. Affinities are written as log10 Kd with Kd in nM; a lower number is a better binder. Replicates are averaged; those with no signal do not enter the mean. "nd" means that the variant was in the library but no mating with the target was seen in any replicate; the authors take this as a sign of poor binding, and no number exists. Order: sorted from the lowest average up, undetected variants last. The authors' rule: three or more of the six replicates give a measured affinity, fewer mean a poor binder. Nonspecific signal, from three strains lacking the peptide, appeared in 1% of pairings of all heavy chain designs, centred on 2.08 (5% of these signals below 0.84); values are not corrected for it. The range of this assay differs from that of the first round, and the authors advise against merging the two.

GFDLNEYGIS / VIYADGRRTAYLDSVK / GEAAGTFDN [En_HC]: -0.96 (6 of 6 replicates).
GFDINEYGIS / VIYADGRRTFYADSVK / GGNAGTFDS [En_HC]: -0.93 (6 of 6 replicates).
GFDLNEYGIS / VIYADGMRTYYADSVK / GQNAGTFDV [En_Gen]: -0.59 (6 of 6 replicates).
GFDLNEYGIS / VIYADGQRTAYADSVK / GKVAGTFDE [En_HC]: -0.58 (6 of 6 replicates).
GFDLNEYGIS / VIYADGRRTFYADSVK / GEAAGTFNI [En_HC]: -0.52 (6 of 6 replicates).
GFDLNEYGIS / VIYADGMRTFYADSVK / GTNGGTFDV [En_HC]: -0.26 (6 of 6 replicates).
GFSLNSYGIS / VIYSDGRRTFYSDSVK / GDAAGTFDS [GPLM_Gen]: -0.20 (6 of 6 replicates).
GFDLNEYGIS / VIYADGMRTAYTDSVK / GNQAGTFDM [En_Gen]: -0.17 (6 of 6 replicates).
GFNLNSYGIS / VIYSDGRRTFYADRVK / GKEAGTFDS [GP_Gibbs]: 0.00 (6 of 6 replicates).
GFTLEKYGIS / VIYSDGRRTFYGDSVK / GRAAGTFDS [GP_HC]: 0.35 (5 of 6 replicates).
GFTLNMYGIS / VIYSDGRRTFYGDWVK / GRAAGTFFS [Ctrl]: 0.37 (1 of 6 replicates).
GFELNMYGIS / VIYSDGRRTFYGDSVK / GRYAGTFDS [GP_Gibbs]: 0.37 (3 of 6 replicates).
GFDLDEYGIS / VIYADGRRTFYIDSVK / GETAGTFDE [En_HC]: 0.51 (5 of 6 replicates).
GFDLNEYGIS / VIYADGKRTFYSDSVK / GNVGGSFDV [En_HC]: 0.52 (6 of 6 replicates).
GFDLNSYGIS / VIYSDGRRTFYSDQVK / GNAAGTFDS [GP_Gen]: 0.88 (6 of 6 replicates).
GFNLNSYGIS / VIYSDGRRTFYGDGVK / GRTAGTFDS [GPLM_Gen]: 1.04 (6 of 6 replicates).
GFDLNEYGIS / VIYADGMRTFYSDSVK / GENAGTFDM [En_Gen]: 1.26 (6 of 6 replicates).
GFDLKEYGIS / VIYADGRRTAYDNDVK / GQVAGIFLD [En_Gibbs]: 1.27 (6 of 6 replicates).
GFTLNSYGIS / VIYADGRRTFYGDSVK / GRLAGTFDS [GPLM_Gen]: 1.50 (6 of 6 replicates).
GFTLNDYGIS / VMYSDGRRTFYGDDVK / GRAALTFDS [Rand]: 1.92 (1 of 6 replicates).
GDSLDEYGIS / VIYADGQRSYYANSVK / GEVDGLFSQ [En_Gibbs]: 1.95 (1 of 6 replicates).
GFTLNSYGIS / VIYSDGKRTFYSDSVK / GQAGGTFDS [GP_HC]: 2.00 (5 of 6 replicates).

The remaining entries, values ahead:

Result 2.00 (1 of 6 replicates), variant GFNLNSYGIS / VIYSDGRRTFYGDEVK / GRQAGTFDS [GP_Gen].
Result 2.72 (2 of 6 replicates), variant GFALNSYGIS / VIYSDGRRTFYGDSVD / GRAAGTFDS [Ctrl].
Result 3.72 (2 of 6 replicates), variant GFDLNEYGIS / VIYADGRRTAYSDSVK / GGNAGFFDM [En_HC].
Result 3.90 (1 of 6 replicates), variant GFWLNSYGIS / VIYSDGRRTFYGDSVK / GRHKGTFDS [Ctrl].
Result nd (0 of 6 replicates), variant GFTLNSYGIS / VIYSDGRRTFYGDSVK / GNAAGTFIN [Ctrl].
Result nd (0 of 6 replicates), variant GFDLEEYGIS / VIYADGMRNAYTANVK / GGKSGDFFM [En_Gibbs].
Result nd (0 of 6 replicates), variant GKTLDEYGIS / VIYADGMRTFYLNTVK / GEDGGFLNQ [En_Gibbs].
Result nd (0 of 6 replicates), variant GFTLNSYGIS / VIYSDGRRCFYGDSVK / GRAAGTFDS [Ctrl].
Result nd (0 of 6 replicates), variant GFEIDEFGIS / VIYADGKRTSYSDTVK / GQLGNAFDL [En_Gibbs].
Result nd (0 of 6 replicates), variant GFTLNSYGIS / VIYRDGRRTHYGDSVK / GRAAGTDDS [Ctrl].
Result nd (0 of 6 replicates), variant NFTLNDYGIS / VIYSDGRRTQYIDSVK / GRAAGTMDS [Rand].
Result nd (0 of 6 replicates), variant GFTLESYGIS / VIYADGRRTFYGDIVK / GRAAGTFES [GP_HC].
Result nd (0 of 6 replicates), variant GFTLNSYGVS / VIYSDGRRTFYGDSVR / TRCAGTFDS [Ctrl].
Result nd (0 of 6 replicates), variant GFNLNSYGIS / VIYSDGRRTFYGDSVK / GRAAGKFDQ [Ctrl].
Result nd (0 of 6 replicates), variant GFALNEYGIS / VIYADGIRSRYANKVK / GNQAGTLLI [En_Gibbs].
Result nd (0 of 6 replicates), variant GYDLVEYGIS / VIYADGQRTMYADTVK / GHHGGIFFM [En_Gibbs].
Result nd (0 of 6 replicates), variant GFTLNSYGRS / VIYSDGRRTFYGDSVK / GRAAGTFDS [Ctrl].
Result nd (0 of 6 replicates), variant GFDLNSYGIS / VIYSDGMRTFYGDSVK / GRTAGTFWS [GP_Gibbs].
Result nd (0 of 6 replicates), variant GFDLMEYGVS / VIYADGQRTYYTNAVK / GEISAGFLI [En_Gibbs].
Result nd (0 of 6 replicates), variant GYDIQDYGIS / VIYADGVRVAYHDSVK / GQTAGIFLL [En_Gibbs].
Result nd (0 of 6 replicates), variant GFTLESYGIS / VIYSDGRRTFYADKVK / GRAAGTFDK [GP_Gibbs].
Result nd (0 of 6 replicates), variant GFTLESYGIS / VIYSDGRRTFYGQSVK / GRACGTFDS [Ctrl].

Excerpt, the first 3 entries:

{"CDR-H1": "GFDLNEYGIS", "CDR-H2": "VIYADGRRTAYLDSVK", "CDR-H3": "GEAAGTFDN", "group": "En_HC", "mean log10 Kd (nM)": "-0.96", "replicates with signal": "6/6"}
{"CDR-H1": "GFDINEYGIS", "CDR-H2": "VIYADGRRTFYADSVK", "CDR-H3": "GGNAGTFDS", "group": "En_HC", "mean log10 Kd (nM)": "-0.93", "replicates with signal": "6/6"}
{"CDR-H1": "GFDLNEYGIS", "CDR-H2": "VIYADGMRTYYADSVK", "CDR-H3": "GQNAGTFDV", "group": "En_Gen", "mean log10 Kd (nM)": "-0.59", "replicates with signal": "6/6"}